Measurements published in US12195427B2.

Chains of the proteins cited; added tags and fusions are not shown. Residues count along the entry.
UniProt O00187, 445-686 limits assumed: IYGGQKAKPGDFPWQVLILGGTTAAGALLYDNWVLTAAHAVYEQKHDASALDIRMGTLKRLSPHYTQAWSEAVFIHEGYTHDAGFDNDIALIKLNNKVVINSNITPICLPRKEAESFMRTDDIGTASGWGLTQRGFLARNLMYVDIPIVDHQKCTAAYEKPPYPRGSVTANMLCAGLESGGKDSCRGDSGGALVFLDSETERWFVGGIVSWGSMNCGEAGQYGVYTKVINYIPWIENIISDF

Target: MASP-2 (CCP1-CCP2-SP) (Homo sapiens (Human), UniProt O00187)
Assay: Enzymatic Assay for MASP-2
Format: biochemical

`COC(=O)CCCCCN[C@H](CCc1ccccc1)C(=O)N[C@@H](C)C(=O)NCc1ccc(C(=N)N)cc1` was tested, and the “MASP-2 vs. thrombin selectivity” value was “* (1.0 to 5.0-fold)”.
